Assay results: the CheMixHub ionic liquid set
± gives the uncertainty stated by the source.

Test: xn = mol fraction of the nth substance listed
Settings: 100 kPa

CC(=O)[O-].CCC[N+](CCC)(CCC)CCC + CCCCCCCCCCCCOS(=O)(=O)[O-].[Na+] + O
viscosity [mPa·s]
Settings	293.15 K	298.15 K	303.15 K	308.15 K	313.15 K	318.15 K
x2 = 1.81e-06, x1 = 0.0001802	1.002 ± 0.029	0.896 ± 0.028	0.787 ± 0.028	0.705 ± 0.027	0.638 ± 0.027	0.589 ± 0.027
x2 = 3.61e-06, x1 = 0.0001802	1.004 ± 0.029	0.898 ± 0.028	0.789 ± 0.028	0.708 ± 0.027	0.64 ± 0.027	0.592 ± 0.027
x2 = 5.42e-06, x1 = 0.0001802	1.005 ± 0.029	0.902 ± 0.028	0.792 ± 0.028	0.709 ± 0.027	0.644 ± 0.027	0.593 ± 0.027
x2 = 7.22e-06, x1 = 0.0001802	1.006 ± 0.029	0.902 ± 0.028	0.795 ± 0.028	0.711 ± 0.027	0.645 ± 0.027	0.595 ± 0.027
x2 = 9.03e-06, x1 = 0.0001802	1.007 ± 0.029	0.903 ± 0.028	0.797 ± 0.028	0.711 ± 0.027	0.647 ± 0.027	0.595 ± 0.027
x2 = 1.084e-05, x1 = 0.0001802	1.007 ± 0.029	0.903 ± 0.028	0.8 ± 0.028	0.714 ± 0.027	0.648 ± 0.027	0.599 ± 0.027
x2 = 1.264e-05, x1 = 0.0001802	1.007 ± 0.029	0.903 ± 0.028	0.801 ± 0.028	0.718 ± 0.027	0.648 ± 0.027	0.6 ± 0.027
x2 = 1.445e-05, x1 = 0.0001802	1.007 ± 0.029	0.903 ± 0.028	0.803 ± 0.028	0.722 ± 0.027	0.649 ± 0.027	0.601 ± 0.027
x2 = 1.625e-05, x1 = 0.0001802	1.008 ± 0.029	0.904 ± 0.028	0.805 ± 0.028	0.723 ± 0.027	0.65 ± 0.027	0.601 ± 0.027
x2 = 1.806e-05, x1 = 0.0001802	1.008 ± 0.029	0.904 ± 0.028	0.806 ± 0.028	0.726 ± 0.027	0.65 ± 0.027	0.601 ± 0.027
x2 = 1.987e-05, x1 = 0.0001802	1.008 ± 0.029	0.904 ± 0.028	0.806 ± 0.028	0.727 ± 0.027	0.65 ± 0.027	0.601 ± 0.027
x2 = 2.167e-05, x1 = 0.0001802	1.008 ± 0.029	0.904 ± 0.028	0.806 ± 0.028	0.727 ± 0.027	0.651 ± 0.027	0.601 ± 0.027
x2 = 2.348e-05, x1 = 0.0001802	1.008 ± 0.029	0.905 ± 0.028	0.806 ± 0.028	0.727 ± 0.027	0.651 ± 0.027	0.602 ± 0.027
x2 = 2.528e-05, x1 = 0.0001802	1.008 ± 0.029	0.905 ± 0.028	0.806 ± 0.028	0.727 ± 0.027	0.651 ± 0.027	0.602 ± 0.027
x2 = 2.709e-05, x1 = 0.0001802	1.009 ± 0.029	0.905 ± 0.028	0.807 ± 0.028	0.727 ± 0.027	0.651 ± 0.027	0.602 ± 0.027

CC(=O)[O-].CCC[N+](CCC)(CCC)CCC + CCCCCCCCCCCC[N+](C)(C)C.[Br-] + O
viscosity [mPa·s]
Settings	x2 = 5.418e-05, x1 = 0.0001802	x2 = 0.0001084, x1 = 0.0001801	x2 = 0.0001625, x1 = 0.0001801	x2 = 0.0002167, x1 = 0.0001801	x2 = 0.0002708, x1 = 0.0001801	x2 = 0.000325, x1 = 0.0001801	x2 = 0.0003791, x1 = 0.0001801	x2 = 0.0004333, x1 = 0.0001801	x2 = 0.0004874, x1 = 0.0001801	x2 = 0.0005415, x1 = 0.0001801
293.15 K	1.025 ± 0.029	1.027 ± 0.029	1.031 ± 0.029	1.032 ± 0.029	1.034 ± 0.029	1.034 ± 0.029	1.035 ± 0.029	1.036 ± 0.029	1.036 ± 0.029	1.036 ± 0.029
298.15 K	0.916 ± 0.029	0.919 ± 0.029	0.92 ± 0.029	0.92 ± 0.029	0.924 ± 0.029	0.927 ± 0.029	0.928 ± 0.029	0.929 ± 0.029	0.93 ± 0.029	0.93 ± 0.029
303.15 K	0.781 ± 0.028	0.782 ± 0.028	0.784 ± 0.028	0.787 ± 0.028	0.789 ± 0.028	0.789 ± 0.028	0.791 ± 0.028	0.792 ± 0.028	0.793 ± 0.028	0.794 ± 0.028
308.15 K	0.702 ± 0.028	0.703 ± 0.028	0.704 ± 0.028	0.705 ± 0.028	0.707 ± 0.028	0.707 ± 0.028	0.709 ± 0.028	0.71 ± 0.028	0.711 ± 0.028	0.711 ± 0.028
313.15 K	0.646 ± 0.027	0.647 ± 0.027	0.648 ± 0.027	0.649 ± 0.027	0.65 ± 0.027	0.651 ± 0.027	0.652 ± 0.027	0.653 ± 0.027	0.654 ± 0.027	0.654 ± 0.027
318.15 K	0.589 ± 0.027	0.592 ± 0.027	0.592 ± 0.027	0.594 ± 0.027	0.595 ± 0.027	0.595 ± 0.027	0.597 ± 0.027	0.598 ± 0.027	0.598 ± 0.027	0.599 ± 0.027
